Data published in patent US12448436B2, “Antibody specifically binding to GRP94 or antigen-binding fragment thereof, and uses thereof” (KOOKMIN UNIVERSITY INDUSTRY ACADEMY COOPERATION FOUNDATION, priority 2020, dated 2025).

Columns and labels:
HT29 cells = assay: In vitro CRC proliferation assay, HT29; format: cell-based, human; settings: 20 μg/mL, 72 hours, MOCK 2.94±0.04
Procedure: (§1) The four anti-GRP94 human IgG antibodies B5, E5, 2H5, and 3G7 of the present disclosure were examined in vitro for effect on CRC cell proliferation. For use in the efficacy assay, the four cetuximab-resistant colorectal cancer cell lines HCT116, HT29, LoVo, and HCT-8 were each grown in a culture medium (HCT116, HCT8, HT29, and LoVo: RPMI1640+10% FBS+1% Penicillin-Streptomycin) at 37° C. in T-75 flask in a 5% CO2 incubator until reaching about 80-90% confluency. The culture medium was removed by suction and the cells were washed with 10 mL of phosphate buffered saline (hereinafter PBS). After removal of PBS by suction, the cells were treated 2 mL of TrypLE Express Enzyme at 37° C. for 3 minutes in a 5% CO2 incubator. Thereafter, the cells were added with 8 mL of the culture medium, transferred to 15-mL tube, and centrifuged at 500×g for 5 minutes. […] From a small portion of the cell suspension, the cells were counted using the Countess II Automated Cell Counter. […] From the collected images, cell growth was monitored using the IncuCyte FLR live content imaging system (Essen Bioscience, Ann Arbor, MI, USA). The results are shown in FIGS. 17 to 20. • 1) The four GRP94 human antibodies (B5, E5, 2H5, and 3G7) for HCT8 cells were measured to have the following cell indices at the end point: MOCK: 4.8±0.25, B5: 3.15±0.21, E5: 3.33±0.31, 2H5: 3.98±0.09, 3G7: 3.40±0.16, and CTX: 4.84±0.28.

[1] = In vivo hepatotoxicity and nephrotoxicity in colorectal xenograft model; design: species or system Balb/c nude mice; settings: xenograft mice weighed every week, six weeks; 10 mg/kg
Procedure: To assay the four antibodies of the present disclosure for in vivo hepatotoxicity and nephrotoxicity, the same xenograft model as in Example 11 weighed every week. After six weeks of the experiment, GOT (glutamic oxaloacetic transaminase), GPT (glutamate pyruvate transaminase), and TBIL (total bilirubin) were measured for hepatotoxicity assay while BUN (blood urea nitrogen) and CRE (creatinine) were measured for nephrotoxicity assay. The results are depicted in FIGS. 27a and 27b.

[2] = tested on: HCT116 subcutaneous xenograft; assay: Tumor growth inhibition by sole administration, colorectal xenograft model; format: in vivo, Balb/c nude mice; settings: 10 mg/kg intravenous twice per week for six weeks; controls PBS and hIgG
Procedure: For use in assaying in-vivo efficacy of the four antibodies of the present disclosure, a subcutaneous xenograft mouse model was established by injecting the metastatic colorectal cancer cell line HCT116 (5×10^6 cells) into 6-week-old Balb/c nude mice. When the tumor size reached about 50-100 mm^3, PBS (negative control), hIgG (negative control), cetuximab, and the four antibodies (B5, E5, 2H5, and 3G7) were each intravenously injected at a dose of 10 mg/kg twice per week for six weeks while monitoring the efficacies. The results are depicted in FIGS. 26a to 26d.

HCT8 cells = assay: In vitro CRC proliferation assay, HCT8; format: cell-based, human; settings: 20 μg/mL, 72 hours, MOCK 4.8±0.25
Procedure: as §1

LoVo cells = assay: In vitro CRC proliferation assay, LoVo; format: cell-based, human; settings: 20 μg/mL, 72 hours, MOCK 3.76±0.19
Procedure: as §1

[3] = tested on: colorectal cancer patients; settings: other patients show cetuximab resistance; cited from earlier work

cetuximab [reference compound]
cell index at the end point (HT29 cells): 3.27±0.12
changes in body weight [1]: no significant changes
inhibitory activity against tumor growth compared to the controls [2]: not significantly different
cell index at the end point (HCT8 cells): 4.84±0.28
cell index at the end point (LoVo cells): 3.43±0.14
share of colorectal cancer patients in whom effective [3]: 10-20%
